{"source": "patent US20090023700A1", "about": "“NEUROPROTECTIVE TREATMENTS” (University of Louisville Research Foundation, priority 2007, published 2009)", "tested_on": "T9 contusive spinal cord injury", "assay": "Grid-walking sensorimotor test after T9 contusion", "conditions": "100 μM, 28 d L5/6 infusion started 4 h after contusion; p<0.0000025 per ANOVA", "data": [{"compound": "O.O.O.OO.OO.[K+].[OH-].[V].c1cnc2c(c1)ccc1cccnc12", "note": "[bpV(phen), potassium bisperoxo(1,10-phenanthroline)oxovanadate (V)]", "values": [{"measurement": "grid-walking performance versus PBS group, weekly tests", "value": "performed better than the PBS group at all postinjury times"}]}]}
